# Measured affinities in a library of Ab-95 light chain variants

The measurements come from Engelhart et al. 2022 (doi:10.1038/s41597-022-01779-4) through the FLAb antibody collection.

The target is the same throughout: PDVDLGDISGINAS, from the HR2 region of SARS-CoV-2 spike.

Parent: Ab-95, a human scFv built as VH, three GGGGS repeats, VL. Only the CDRs of the light chain vary.
VH: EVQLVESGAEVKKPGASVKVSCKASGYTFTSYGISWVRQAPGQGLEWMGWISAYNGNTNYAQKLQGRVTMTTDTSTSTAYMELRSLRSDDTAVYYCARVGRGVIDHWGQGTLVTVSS
VL: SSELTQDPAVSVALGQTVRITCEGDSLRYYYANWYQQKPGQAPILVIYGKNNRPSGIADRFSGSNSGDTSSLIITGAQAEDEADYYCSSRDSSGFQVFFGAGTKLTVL

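The parent was found by panning a naive human phage display library on the peptide. AAYL52 was designed without a model: most single CDR substitutions and a random sample of double and triple ones. In AlphaSeq, yeast of one mating type display the scFv and yeast of the other type display the target. Binding brings cells together so that they mate, and sequencing counts the barcode pairs among the diploids. Each replicate has its own calibration line, from reference interactions of the BCL2 family. Mating was done three times.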

Positions count from residue 1 of the parent VL; Y29N puts N in place of Y.
The read-out is the apparent dissociation constant on a log10 scale (nM): the lower, the stronger.
The mean shown is taken over the replicates in which the pair was detected.
"not detected" marks a missing value. The strain was present, yet no cells mated with the target were sequenced in any replicate, which points to weak or no binding.
In this assay the parent's reference entry averaged 2.31; its copy inside this library read 2.25.
Empty control strains, which show no peptide, gave a signal in 28% of pairings with library AAYL52; the median was 3.91 and 95% of these signals were weaker than 2.90. No background was subtracted.

changes,"log10 Kd (nM), mean",replicates with signal
Y29N R53L S55G,2.56,3 of 3
S92F Q96H,2.97,3 of 3
Y30Q S88G F98Y,0.40,3 of 3
G24Q D91F F95M,3.22,1 of 3
L27Q S55K S93C,3.66,1 of 3
Y31W G49I F95S,4.52,1 of 3
L27T R28F Y29I,4.56,3 of 3
Y31E N51I Q96R,2.37,3 of 3
E23V N51V S55R,3.56,3 of 3
R90H S93D V97E,5.69,1 of 3
R28E N52I S92H,2.32,3 of 3
N33T N52E S88D,not detected,0 of 3
G24W N52Y S89R,not detected,0 of 3
R28C K50H S88Y,4.16,2 of 3
G24Q Y31G G49Q,4.94,1 of 3
N51S N52C R90N,4.14,2 of 3
D25G Y30R V97S,2.40,3 of 3
L27C R28Y N51E,2.82,3 of 3
L27Y R90G G94D,4.44,1 of 3
L27D K50Y,3.76,3 of 3
S88I S89Q V97Y,2.32,3 of 3
S26W S88P S89V,3.58,2 of 3
G24H R28H G49V,not detected,0 of 3
G24E L27E Y31W,3.76,1 of 3
S26N R53D Q96G,4.08,2 of 3
S26D N33E F98P,3.67,2 of 3
A32L S92V F95I,3.64,1 of 3
S26M Y29E F95R,3.87,3 of 3
S89W R90F G94T,4.26,2 of 3
Y30D S93K G94C,2.27,3 of 3
N51E N52I,3.55,3 of 3
Y31M G94Y F95C,2.35,3 of 3
Y30H R90L F98M,2.67,3 of 3
K50F F95K,3.19,3 of 3
Y29L G49M S88P,4.14,1 of 3
R90Y V97I F98H,2.41,1 of 3
Y30L S55G G94M,3.16,3 of 3
S88P R90F V97N,5.26,1 of 3

Further variants, results first:

"log10 Kd (nM), mean",replicates with signal,changes
3.39,1 of 3,R53Q S88L
3.40,2 of 3,A32I S55K F95P
3.92,3 of 3,N51E R53E Q96Y
3.93,2 of 3,S26G G49K S88T
3.09,3 of 3,N51D S92G Q96P
3.41,3 of 3,R53T G94K F98H
4.11,3 of 3,Y31L R53E
3.89,1 of 3,Y29T K50N R53E
1.14,3 of 3,Y31S N51G
3.43,3 of 3,R28H K50E R53Q
4.03,2 of 3,L27Q G49E G94L
not detected,0 of 3,G49A K50D R53A
3.66,2 of 3,G24M Y31V S89E
not detected,0 of 3,Y30K N51G F95K
0.95,3 of 3,Y30N S55V F95M
4.04,2 of 3,K50H D91E Q96D
1.76,3 of 3,Y29S S93L G94C
not detected,0 of 3,R28L N51L Q96K
3.40,3 of 3,S26M Y31N R53G
3.74,3 of 3,R53Q S88T Q96P
2.35,3 of 3,E23Q D25V S88N
3.74,2 of 3,R53D R90L D91I
4.12,2 of 3,G24L L27G Y31R
2.22,1 of 3,A32S Q96M F98N
4.80,2 of 3,K50I N51V G94M
not detected,0 of 3,R53W S89M V97R
3.14,1 of 3,N51R P54N F98N
4.12,1 of 3,D25T A32H S92L
2.64,3 of 3,Y31L S89W
2.60,3 of 3,Y31G N51T S89D
2.60,2 of 3,R28P G94C F95T
3.78,3 of 3,A32V S89M
5.62,1 of 3,Y31M N52R V97R
5.60,1 of 3,N33Y S55F F95C
not detected,0 of 3,R28Q N33T N51A
5.62,1 of 3,E23C V97G
4.13,1 of 3,Y31V V97S
2.98,3 of 3,K50F S92A F95N

For reference, 7 entries of the list once more:

{"changes": "G24H R28H G49V", "log10 Kd (nM), mean": "not detected", "replicates with signal": "0 of 3"}
{"changes": "R28C K50H S88Y", "log10 Kd (nM), mean": "4.16", "replicates with signal": "2 of 3"}
{"changes": "N51E R53E Q96Y", "log10 Kd (nM), mean": "3.92", "replicates with signal": "3 of 3"}
{"changes": "E23Q D25V S88N", "log10 Kd (nM), mean": "2.35", "replicates with signal": "3 of 3"}
{"changes": "A32S Q96M F98N", "log10 Kd (nM), mean": "2.22", "replicates with signal": "1 of 3"}
{"changes": "N51D S92G Q96P", "log10 Kd (nM), mean": "3.09", "replicates with signal": "3 of 3"}
{"changes": "S88I S89Q V97Y", "log10 Kd (nM), mean": "2.32", "replicates with signal": "3 of 3"}